Laboratory results reported in ChEMBL document CHEMBL5120879, “Medicinal Chemistry Strategies for the Development of Bruton's Tyrosine Kinase Inhibitors against Resistance” (J Med Chem, 2022).

Amino acid sequences for entries named in this document (tags omitted). Residues count along the entry.
UniProt Q06187, 2-659 T474M limits assumed: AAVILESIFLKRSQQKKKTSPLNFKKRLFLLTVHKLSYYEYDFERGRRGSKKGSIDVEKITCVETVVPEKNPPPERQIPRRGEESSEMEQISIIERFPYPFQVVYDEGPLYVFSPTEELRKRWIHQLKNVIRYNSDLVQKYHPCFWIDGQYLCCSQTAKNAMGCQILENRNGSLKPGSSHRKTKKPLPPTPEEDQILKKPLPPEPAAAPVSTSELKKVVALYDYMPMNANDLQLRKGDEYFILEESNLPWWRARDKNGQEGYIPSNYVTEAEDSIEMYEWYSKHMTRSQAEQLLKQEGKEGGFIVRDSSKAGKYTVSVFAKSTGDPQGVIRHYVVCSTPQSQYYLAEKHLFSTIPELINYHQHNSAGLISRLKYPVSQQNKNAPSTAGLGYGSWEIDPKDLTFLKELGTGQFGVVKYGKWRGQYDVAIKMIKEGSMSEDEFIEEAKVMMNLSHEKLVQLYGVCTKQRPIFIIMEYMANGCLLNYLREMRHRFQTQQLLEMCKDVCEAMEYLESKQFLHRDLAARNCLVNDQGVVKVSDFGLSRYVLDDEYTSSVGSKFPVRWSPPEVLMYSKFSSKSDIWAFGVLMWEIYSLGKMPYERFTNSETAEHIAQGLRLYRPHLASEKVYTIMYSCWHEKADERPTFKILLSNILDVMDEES
UniProt Q06187, 2-659 C481S limits assumed: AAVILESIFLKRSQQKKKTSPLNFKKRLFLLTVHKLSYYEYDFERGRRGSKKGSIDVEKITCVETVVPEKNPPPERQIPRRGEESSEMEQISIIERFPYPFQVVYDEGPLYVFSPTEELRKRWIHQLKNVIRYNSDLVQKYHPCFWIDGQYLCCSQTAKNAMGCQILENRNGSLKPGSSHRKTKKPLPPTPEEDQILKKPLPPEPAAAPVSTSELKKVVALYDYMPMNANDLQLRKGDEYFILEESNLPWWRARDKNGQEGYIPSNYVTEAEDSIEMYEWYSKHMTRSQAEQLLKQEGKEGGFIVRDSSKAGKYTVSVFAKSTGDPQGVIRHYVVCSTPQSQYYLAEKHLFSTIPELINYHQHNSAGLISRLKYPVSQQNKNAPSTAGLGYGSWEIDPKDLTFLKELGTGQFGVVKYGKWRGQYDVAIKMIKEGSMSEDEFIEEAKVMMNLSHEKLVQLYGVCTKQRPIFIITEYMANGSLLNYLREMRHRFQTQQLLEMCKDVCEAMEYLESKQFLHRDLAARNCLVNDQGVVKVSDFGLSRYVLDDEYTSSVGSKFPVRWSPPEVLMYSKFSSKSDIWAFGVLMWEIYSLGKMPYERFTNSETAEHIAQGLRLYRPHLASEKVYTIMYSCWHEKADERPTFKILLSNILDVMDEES
UniProt Q06187, 2-659 C481R limits assumed: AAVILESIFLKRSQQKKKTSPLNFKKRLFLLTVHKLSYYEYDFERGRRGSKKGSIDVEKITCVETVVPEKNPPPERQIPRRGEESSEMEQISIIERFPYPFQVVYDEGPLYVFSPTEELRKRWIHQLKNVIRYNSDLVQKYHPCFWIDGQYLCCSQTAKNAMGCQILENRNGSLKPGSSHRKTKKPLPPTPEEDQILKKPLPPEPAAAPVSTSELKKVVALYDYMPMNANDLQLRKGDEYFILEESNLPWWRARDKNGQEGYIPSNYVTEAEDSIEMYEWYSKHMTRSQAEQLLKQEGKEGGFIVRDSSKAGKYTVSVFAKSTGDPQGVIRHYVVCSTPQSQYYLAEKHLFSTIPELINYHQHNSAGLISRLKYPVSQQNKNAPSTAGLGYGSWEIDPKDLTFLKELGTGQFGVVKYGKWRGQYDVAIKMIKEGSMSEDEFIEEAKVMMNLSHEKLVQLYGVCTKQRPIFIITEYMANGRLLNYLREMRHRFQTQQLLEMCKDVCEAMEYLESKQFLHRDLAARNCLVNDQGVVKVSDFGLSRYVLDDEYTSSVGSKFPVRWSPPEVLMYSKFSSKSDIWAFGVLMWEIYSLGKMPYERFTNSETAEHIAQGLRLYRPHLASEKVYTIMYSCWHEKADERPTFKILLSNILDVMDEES
UniProt Q06187, 2-659 T474I limits assumed: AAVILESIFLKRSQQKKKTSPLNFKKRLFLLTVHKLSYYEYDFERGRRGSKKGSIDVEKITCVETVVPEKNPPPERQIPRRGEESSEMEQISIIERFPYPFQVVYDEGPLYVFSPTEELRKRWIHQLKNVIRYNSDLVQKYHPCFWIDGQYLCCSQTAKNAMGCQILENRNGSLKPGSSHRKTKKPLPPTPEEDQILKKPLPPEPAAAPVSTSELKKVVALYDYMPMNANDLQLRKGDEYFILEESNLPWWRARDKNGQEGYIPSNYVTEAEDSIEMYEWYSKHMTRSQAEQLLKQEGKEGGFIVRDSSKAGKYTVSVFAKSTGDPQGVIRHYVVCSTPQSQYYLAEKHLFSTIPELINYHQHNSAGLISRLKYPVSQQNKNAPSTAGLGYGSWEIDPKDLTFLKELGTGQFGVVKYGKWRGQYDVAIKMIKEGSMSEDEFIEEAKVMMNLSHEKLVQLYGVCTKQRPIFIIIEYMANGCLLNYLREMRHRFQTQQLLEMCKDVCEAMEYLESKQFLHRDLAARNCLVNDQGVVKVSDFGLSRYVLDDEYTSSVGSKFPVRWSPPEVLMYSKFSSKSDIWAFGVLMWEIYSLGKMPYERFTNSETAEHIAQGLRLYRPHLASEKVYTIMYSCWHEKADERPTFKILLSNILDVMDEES

Legend:
[1] = target: Tyrosine-protein kinase BTK (Homo sapiens, UniProt Q06187, T474M); assay: Inhibition of BTK T474M mutant (unknown origin) expressed in baculovirus infected Trichoplusia ni pro cells incubated for 30 mins in presence of ATP by Microfluidic chip based mobility shift assay; parameters: species or system Tni PRO
[2] = target: Tyrosine-protein kinase BTK (Homo sapiens, UniProt Q06187); assay: Inhibition of His-tagged full-length recombinant wild-type human BTK (Ala2 to Ser659 residues) expressed in baculovirus infected insect cells incubated for 30 mins in presence of ATP by Microfluidic chip based mobility shift assay
[3] = target: Tyrosine-protein kinase BTK (Homo sapiens, UniProt Q06187, C481S); assay: Inhibition of BTK C481S mutant (unknown origin) expressed in baculovirus infected Sf9 insect cells incubated for 30 mins in presence of ATP by Microfluidic chip based mobility shift assay
[4] = target: Tyrosine-protein kinase BTK (Homo sapiens, UniProt Q06187, C481R); assay: biochemical
[5] = target: Tyrosine-protein kinase BTK (Homo sapiens, UniProt Q06187, T474I); assay: biochemical

## C=CC(=O)Nc1cccc(Nc2nc(Nc3ccc(OCCOC)cc3)ncc2F)c1 [SPEBRUTINIB]
[1]
  pIC50: 7.12
[2]
  pIC50: 7.66
[3]
  pIC50: 6.04
[4]
  pIC50: 6.07
[5]
  pIC50: 7.32

pIC50: −log10 of the molar value.
